Test results taken from patent US8603518B2, “Hydroxybutyrate and poly-hydroxybutyrate as components of animal feed or feed additives” (Universiteit Gent, priority 2006, dated 2013).

Test system: colon microbiota
Format: cell-based, human
Procedure: All incubations were performed in penicillin vials using fecal suspensions taken from the ascending vessel of the SHIME reactor running under normal feeding conditions. The feed matrix consisted of a carbohydrate-based medium containing arabinogalactan (1 g/L), pectin (2 g/L), xylan (1 g/L), starch (4.2 g/L), glucose (0.4 g/L), yeast extract (3 g/L), peptone (1 g/L), mucin (4 […]), KH2PO4 (5.3 g/L) and Na2HPO4 (1.4 g/L). […] All assays were performed in duplicate. […] 31 integrator (Thermo Separation Products, Wilrijk, Belgium). […] Microbial counts and SCFAs levels were determined as described above.

Substance: poly-3-hydroxybutyrate [PHB]
- Microbial degradation (release of PHB degradation products): no microbial degradation occurred
